# Test system: acute GVHD in F1 hybrid BN/Lew rats
# Assay: GVHD animal experiment: irradiated rats after transplantation of bone marrow cells and T lymphocytes
# Assay type: in vivo
# Description: Animal experiments: (authorization No. LVL M-V310-4/7221.3-1.2-015/03 Landesveterinäramt Mecklenburg-Vorpommern Rostock)
# Initial statistically significant experiments with the long-circulating macromolecular MTX-HSA in GVHD animals were carried out in the department of Prof. Dr. M. Freund in Rostock University clinic under the direction of PD Dr G. Hartung and Dr D. Wolff. These entailed 20 female F1 hybrid BN/Lew rats receiving whole-body irradiation with 7.5 Gy (n=10) or 9 Gy (n=10) and then transplantation of 40 million bone marrow cells and 15 million T lymphocytes from female Lew rats.
substance,measurement,setting,value
MTX-HSA,rats of the group that developed an acute GVHD,"10 rats per group, 2 mg/kg intraperitoneally on day 0, 4, 8 and 12, whole-body irradiation 7.5 or 9 Gy, transplantation of 40 million bone marrow cells and 15 million T lymphocytes from Lew rats",only one rat
same,side effects,"GVHD rats, methotrexate-albumin 2 mg/kg i.p. day 0, 4, 8, 12, MTX at equieffective doses",No significant side effect

# Reference: patent US7781406B2, “Production and use of the methotrexate-albumin conjugate as an immunosuppressive agent in GVHD” (Albupharm Heidelberg GmbH & Co. KG, priority 2004, dated 2010)
